# The entries are a selection whose mix differs from that of the whole data set. Activity calls are given as the source filed them. The call rests on the fitted dose curve; in most records, active means well fitted inhibition curve with a large enough effect; inconclusive means small, poorly fitted or top-dose-only effect; inactive means flat fitted curve, though single readings scatter.
# Amino acid sequences for entries named in this document (tags omitted).
# UniProt P46063, whole entry: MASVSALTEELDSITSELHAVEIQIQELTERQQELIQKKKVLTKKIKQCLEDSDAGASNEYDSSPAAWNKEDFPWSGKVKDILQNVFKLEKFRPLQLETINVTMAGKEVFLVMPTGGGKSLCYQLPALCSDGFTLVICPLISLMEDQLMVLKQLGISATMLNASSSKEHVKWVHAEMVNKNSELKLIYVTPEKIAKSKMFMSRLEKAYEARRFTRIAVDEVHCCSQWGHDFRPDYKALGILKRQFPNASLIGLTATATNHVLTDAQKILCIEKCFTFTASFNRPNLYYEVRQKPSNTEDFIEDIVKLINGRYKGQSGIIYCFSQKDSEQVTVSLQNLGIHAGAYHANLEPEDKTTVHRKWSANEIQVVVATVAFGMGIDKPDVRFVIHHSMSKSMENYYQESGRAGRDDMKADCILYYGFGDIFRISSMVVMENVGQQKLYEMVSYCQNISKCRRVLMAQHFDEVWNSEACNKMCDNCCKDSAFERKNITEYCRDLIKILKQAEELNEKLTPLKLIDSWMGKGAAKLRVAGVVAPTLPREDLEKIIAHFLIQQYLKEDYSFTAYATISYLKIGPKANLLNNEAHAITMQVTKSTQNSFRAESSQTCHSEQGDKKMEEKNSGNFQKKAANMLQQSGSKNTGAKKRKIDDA
# Target: ATP-dependent DNA helicase Q1 (Homo sapiens) (UniProt P46063)
# Assay: qHTS Assay for Inhibitors of RecQ-Like Dna Helicase 1 (RECQ1); further: nearly all actives have a fitted effect of over 30% in size;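 on activity, negative = inhibition: plate controls were vehicle for no effect and no enzyme for full effect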
# Details: RECQ1 DNA unwinding, red fluorescence kinetic read; activity, negative = inhibition: at 57.3 µM (top of the series) unless noted
# Excerpt: Survival of cells and the faithful propagation of the genome depend on elaborate mechanisms of detecting and repairing DNA damage. Treatment of advanced cancer relies on radiation therapy or chemotherapy, which kill cancer cells by causing extensive DNA damage. It is often found, that cancer cells develop resistance to therapy through enhanced activity of DNA repair functions; this has led to an increased interest in developing drugs that interfere with DNA repair, which could sensitize cancer cells to conventional therapy.
# This validation qHTS assay pertains to human RECQ1, which is important in resolving abnormal DNA structures formed during replication or homologous recombination. Shutting down the expression of RECQ1 leads to chromosomal instability and higher radiation sensitivity in cultured cells.
# The validation assay was a fluorescence quenching based kinetic qHTS for RECQ1 Helicase DNA unwinding. The activity was measured as ATP-dependent separation of a 20-bp DNA duplex extended by 30-nt single-stranded tails (forked duplex). The forked DNA substrate was tagged with rhodamine fluorophore (carboxytetramethyl rhodamine, TAMRA) and BHQ-2 (Black Hole Quencher 2) dark quencher. Strand separation results in an increase in the fluorescence of TAMRA (excitation 525 nm, emission 598 nm). This substrate construct operates in a red-shifted region where very few compound library members have been noted to fluoresce (PubChem AIDs 593 and 594). An additional feature of the assay is the inclusion of 2.5 ug/ml poly (dIdC), to reduce interference by compounds such as DNA intercalators, a major source of false inhibitors.
# Opher Gileadi, Structural Genomics Consortium, University of Oxford
# Screening Center PI: Austin, C.P.
# Screening Center: NIH Chemical Genomics Center [NCGC]
# Three uL of reaction buffer (25 mM Tris-HCl (pH 8.0), 5 mM NaCl, 2 mM MgCl2, 1mM DTT, 0.01% Tween- 20, and 2.5 ug/ml poly(dI-dC), including enzyme (50 nM RECQ1T1), were dispensed into a 1536-well Greiner black assay plate via solenoid-valve based nanoliter dispensers. Compounds (23 nl each in columns 5-48) and control (23 nl each in column 2 as dose-response) were transferred via a Kalypsys pintool equipped with a 1536-pin array. The plates were incubated for 15 min at room temperature, and then 1 ul of substrates (200 nM DNA and 2 mM ATP, final concentrations) was added to start the reaction. The plate was transferred into a ViewLux high-throughput CCD imager where the reaction progress was measured in a discontinuous kinetic mode (two reads spaced 2 hours apart, with intermediate room temperature incubation of the covered assay plate) by using standard red-fluorescence optics (excitation filter 525 nm, emission filter 598 nm). Enzyme-free and vehicle (DMSO) controls were included for signal normalization.
row,SMILES,"activity, negative = inhibition"
1,CC(C)N(CCCl)C(C)C,inactive: 0.128%
2,O=[N+]([O-])c1cc([N+](=O)[O-])c(-n2nnc3ccccc32)c([N+](=O)[O-])c1,inactive: -2.56%
3,Cc1ccc(C)c(NP(C)(=O)Oc2ccccc2)c1 (centres undefined),inactive: -12.7%
4,Cc1cc(C)cc(OP(C)(=O)Nc2ccccn2)c1 (centres undefined),inactive: -12.3%
5,CP(=O)(Nc1cccc(Br)c1)Oc1ccccc1 (centres undefined),inactive: 27.7%
6,CCOC(=O)c1ccc(NP(C)(=O)Oc2cc(C)cc(C)c2)cc1 (centres undefined),inactive: -0.255%
7,Cc1cc(C)cc(OP(C)(=O)Nc2ccc(C)cc2C)c1 (centres undefined),inactive: 3.06%
8,COc1ccccc1OP(C)(=O)Nc1cccc(Br)c1 (centres undefined),inactive
9,CC1=NCCc2c1[nH]c1ccccc21.O=[N+]([O-])c1cc([N+](=O)[O-])c(O)c([N+](=O)[O-])c1,inactive: -0.806%
10,O=[N+]([O-])OCC(CO[N+](=O)[O-])(CO[N+](=O)[O-])CO[N+](=O)[O-],inactive
11,Cc1ccc([N+](=O)[O-])cc1[N+](=O)[O-],inactive: -2.36%
12,O=[N+]([O-])c1cccc([N+](=O)[O-])c1,inactive: -3.2%
13,CP(=O)(Nc1ccccc1)Oc1ccc(F)cc1 (centres undefined),inactive: -4.14%
14,CCCCCOc1ccc(NP(C)(=O)Oc2ccc(Cl)cc2Cl)cc1 (centres undefined),inactive: -10.7%
15,CCN(CC)CCCOC(=O)C(O)(c1ccccc1)C1CCCCC1 (centres undefined),inactive: -6.14%
16,CCOC(=O)c1ccc(NP(C)(=O)Oc2ccc(F)cc2)cc1 (centres undefined),inactive: 6.58%
17,COc1ccc(OP(C)(=O)Nc2ccc(SC(F)(F)F)cc2)cc1 (centres undefined),inactive: -13.7%
18,CCC(C)(OO)OOC(C)(CC)OO (centres undefined),inactive: -1.91%
19,Cc1cccc([N+](=O)[O-])c1[N+](=O)[O-],inactive: 4.69%
20,O=C(OCCN1CCN(CCOCc2ccccc2)CC1)C(O)(c1ccccc1)c1ccccc1,inactive: -3.99%
21,CP(=O)(Nc1ccccc1F)Oc1ccccc1 (centres undefined),inactive
22,CC(C)c1ccc(OP(C)(=O)Nc2ccc(SC(F)(F)F)cc2)cc1 (centres undefined),inactive: -12.8%

row,SMILES,"activity, negative = inhibition"
1,Cc1ccccc1NP(C)(=O)Nc1ccccc1C,inactive: -2.73%
2,CCN(CCCl)Cc1ccccc1C,inactive: -4.08%
3,[NH4+].[O-][Cl+3]([O-])([O-])[O-],inactive: -18.7%
4,CP(=O)(Nc1ccc2c(c1)OCCO2)Oc1ccccc1 (centres undefined),inactive: -1.71%
5,CCOP(C)(=S)SCC(=O)NC(C)(CC)C(=O)O (centres undefined),inactive: -10.1%
6,CCOP(=O)(CC)OCC,inactive: -0.502%
7,CP(=O)(Nc1ccc(SC(F)(F)F)cc1)Oc1ccc(F)cc1 (centres undefined),inactive: -5.74%
8,O=[N+]([O-])c1ccc(OP2(=O)COCCO2)cc1 (centres undefined),inactive: -11.5%
9,Cc1ccc([N+](=O)[O-])c([N+](=O)[O-])c1,inactive: 11.1%
10,Cc1c([N+](=O)[O-])cccc1[N+](=O)[O-],inactive: -6.44%
11,Cc1cc(-c2cccc3ccccc23)c(C)cn1.O=[N+]([O-])c1cc([N+](=O)[O-])c(O)c([N+](=O)[O-])c1,inactive
12,CN(C)CCOC(=O)C(O)(c1ccccc1)C1CCCCC1 (centres undefined),inactive: 2.81%
13,COc1ccc(NP(C)(=O)Oc2ccccc2OC)cc1 (centres undefined),inactive
14,COc1ccc(OP(C)(=O)Nc2cccc(Br)c2)cc1 (centres undefined),inactive
15,C/C1=C2N=C(/C=C3N=C(/C(C)=C4\[N-][C@@](C)([C@H]5N=C1[C@@](C)(CCC(=O)NC[C@H](C)OP(=O)([O-])O[C@@H]1[C@H](O)[C@H](n6cnc7cc(C)c(C)cc76)O[C@@H]1CO)[C@@H]5CC(N)=O)[C@](C)(CC(N)=O)[C@H]4CCC(N)=O)[C@@](C)(CC(N)=O)[C@@H]\3CCC(N)=O)C(C)(C)[C@@H]/2CCC(N)=O.[C-]#N.[Co+3],inactive: -7.42% [at 25.9 µM]
16,CCOC(=O)c1ccc(NP(C)(=O)Oc2ccc(Cl)cc2)cc1 (centres undefined),inactive: 0.0943%
17,CP(=O)(OC12CC3CC(CC(C3)C1)C2)OC12CC3CC(CC(C3)C1)C2,inactive
18,CN(C)C(=O)c1c([N+](=O)[O-])cc([N+](=O)[O-])cc1[N+](=O)[O-],inactive: -10.2%
19,COc1ccccc1OP(C)(=O)Nc1ccccc1Br (centres undefined),inactive
20,CC(C)(C)c1ccc(OP(C)(=O)O)cc1,inactive: -3.03%
21,CP(=O)(Nc1ccc(Cl)cc1)Oc1ccc(F)cc1 (centres undefined),inactive
22,COc1ccccc1OP(C)(=O)Nc1c(C)n(C)n(-c2ccccc2)c1=O (centres undefined),inactive

row,SMILES,"activity, negative = inhibition"
1,OCCSCCO,inactive: 16.9%
2,O=C(OCCCN1CCCC1)C(O)(c1ccccc1)C1CCCCC1 (centres undefined),inactive: -7.28%
3,CP(=O)(Oc1ccccc1)N1CCOC1=O (centres undefined),inactive: -3.49%
4,CCc1ccc(OP(C)(=O)Nc2cccnc2)cc1 (centres undefined),inactive
5,CCN(CC)CC(O)COC(=O)C(O)(c1ccccc1)C1CCCCC1 (centres undefined),inactive: 5.26%
6,COc1ccc(OP(C)(=O)Nc2ccc(Br)cc2)cc1 (centres undefined),inactive: -6.55%
7,CP(=O)(Nc1ccccn1)Oc1ccccc1 (centres undefined),inactive: -4.26%
8,COc1ccccc1OP(C)(=O)Nc1ccc(C)cc1C (centres undefined),inactive
9,CCc1ccc(OP(C)(=O)O)cc1,inactive: 4.78%
10,Cc1c(NP(C)(=O)Oc2ccc(C(C)C)cc2)c(=O)n(-c2ccccc2)n1C (centres undefined),inactive
11,O=[N+]([O-])c1cc([N+](=O)[O-])c(Nc2ccccn2)c([N+](=O)[O-])c1,inactive: -8.44%
12,COc1ccc(OP(C)(=O)Nc2ccccn2)cc1 (centres undefined),inactive
13,CN(C)CCOC(=O)C(O)(c1ccccc1)C1CCCC1 (centres undefined),inactive: -7.47%
14,COc1ccccc1OP(C)(=O)Nc1ccc(Br)cc1 (centres undefined),inactive: -7.75%
15,CP(=O)(Nc1ccc(Cl)cc1Cl)Oc1ccccc1 (centres undefined),inactive: -5.25%
16,CP(=O)(OCCOc1ccccc1)OCCOc1ccccc1,inactive: -11.6%
17,Cc1nc2ccc3ccccc3c2o1.O=[N+]([O-])c1cc([N+](=O)[O-])c(O)c([N+](=O)[O-])c1,inactive
18,COc1ccccc1OP(C)(=O)Nc1ccc(C)c(C)c1 (centres undefined),inactive: -0.154%
19,COc1ccc(OP(C)(=O)Nc2ccccc2Br)cc1 (centres undefined),inactive: -12.9%
20,Cc1cc(C)cc(OP(C)(=O)Nc2cccc(C(F)(F)F)c2)c1 (centres undefined),inactive: -9.44%

# — PubChem BioAssay AID2549 (National Center for Advancing Translational Sciences (NCATS), 2010)
